Results on 3 molecules are retold here after patent US8975417B2, “Pyrazolopyrrolidine derivatives and their use in the treatment of disease” (Novartis AG, priority 2013, dated 2015).

Sequences of proteins named here, by UniProt entry; tags and fusion partners are left off. Residues count along the entry.
UniProt P25440, 60-472: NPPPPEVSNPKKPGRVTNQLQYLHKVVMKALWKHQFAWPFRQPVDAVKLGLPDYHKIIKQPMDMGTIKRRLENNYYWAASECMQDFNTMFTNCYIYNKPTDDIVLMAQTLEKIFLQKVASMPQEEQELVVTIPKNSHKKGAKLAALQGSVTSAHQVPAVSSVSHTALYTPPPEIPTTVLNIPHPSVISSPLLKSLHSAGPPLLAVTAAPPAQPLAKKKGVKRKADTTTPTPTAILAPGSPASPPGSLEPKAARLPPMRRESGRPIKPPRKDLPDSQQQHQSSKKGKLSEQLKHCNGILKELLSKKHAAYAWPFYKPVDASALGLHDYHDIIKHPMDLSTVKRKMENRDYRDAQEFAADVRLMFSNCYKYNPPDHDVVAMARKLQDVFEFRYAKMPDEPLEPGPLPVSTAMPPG
UniProt Q15059, 20-477: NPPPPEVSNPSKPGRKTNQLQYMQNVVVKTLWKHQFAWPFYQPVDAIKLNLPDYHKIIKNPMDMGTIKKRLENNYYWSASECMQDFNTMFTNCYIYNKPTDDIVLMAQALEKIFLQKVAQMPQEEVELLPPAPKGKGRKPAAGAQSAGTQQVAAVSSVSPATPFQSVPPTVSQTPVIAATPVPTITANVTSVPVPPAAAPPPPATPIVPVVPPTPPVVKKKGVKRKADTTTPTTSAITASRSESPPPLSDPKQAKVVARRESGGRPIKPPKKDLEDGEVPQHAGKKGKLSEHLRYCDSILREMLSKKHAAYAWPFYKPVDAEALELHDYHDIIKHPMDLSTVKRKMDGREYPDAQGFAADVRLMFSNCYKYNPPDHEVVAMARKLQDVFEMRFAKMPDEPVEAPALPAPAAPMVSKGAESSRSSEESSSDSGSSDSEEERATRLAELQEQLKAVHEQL

Structures are written as SMILES. pIC50: −log10 of the molar value.

One assay addresses His-Brd2(60-472) (Homo sapiens (Human), UniProt P25440). Briefly: TR-FRET in-vitro binding assay for BRD2. As to conditions: biochemical. On the procedure: (§1) TR-FRET In-Vitro Binding Assays for BRD2, BRD3, and BRD4:
(§2) All assays were performed in 384-well microtiter plates. Each assay plate contained 8-point serial dilutions for 40 test compounds, plus 16 high- and 16 low controls. Liquid handling and incubation steps were done on an Innovadyne Nanodrop Express equipped with a robotic arm (Thermo CatX, Perkin Elmer/Caliper Twister II) and an incubator (Liconic STX40, Thermo Cytomat 2C450). The assay plates were prepared by addition of 50 nl per well of compound solution in 90% DMSO HummingBird nanodispenser (Zinsser Analytic). The assay was started by stepwise addition of 4.5 μL per well of bromo domain protein (50 mM HEPES, pH 7.5, 0.005% Tween20, 0.1% BSA, 50 mM NaCl, 45 nM His-Brd2(60-472) or 45 nM His-Brd3(20-477) or 45 nM His-Brd4(44-477) all proteins produced in-house) and 4.5 μL per well of peptide solution (50 mM HEPES, pH 7.5, 0.005% Tween20, 0.1% BSA, 50 mM NaCl, 60 nM acetyl-histone H4 (AcK 5, 8, 12, 16) (Biosyntan GmbH)). Reactions were incubated at 30° C. for 35 minutes. Subsequently 4.5 μL per well detection mix (50 mM HEPES, pH 7.5, 0.005% Tween20, 0.1% BSA, 50 mM NaCl, 3 nM Eu-labeled anti-His6 antibody, 21 nM streptavidin-allophycocyanin) were added. After minutes incubation at 30° C., plates were measured in a Perkin Elmer EnVision multilabel reader.
Test compounds were dissolved in DMSO (10 mM) and transferred into 1.4 mL flat bottom or V-shaped Matrix tubes carrying a unique 2D matrix. The stock solutions were stored at […] if not used immediately. For the test procedure the vials were defrosted and identified by a scanner whereby a working sheet was generated that guided the subsequent working steps. Compound dilutions were made in 96 well plates. This format enabled the assay of maximally […] at 8 concentrations (single points) including 4 reference compounds, if desired (known BET inhibitors from the prior art, for this and other assays of the type disclosed herein). The dilution protocol included the production of “pre-dilution plates”, “master plates” and “assay plates”. […]
(Time-resolved FRET reads energy transfer from a long-lived donor to a nearby acceptor.)

For a further assay, the target named is His-Brd3(20-477) (Homo sapiens (Human), UniProt Q15059). Briefly: TR-FRET in-vitro binding assay for BRD3. As to conditions: biochemical. On the procedure:
as §1
as §2, with “reader. […]” for “reader.”

The molecule `Cc1cc(N2C(=O)c3c(c(C4CC4)nn3C)[C@H]2c2ccc(Cl)cc2)cn2c(C)nnc12` [Example 164, (R)-4-(4-chlorophenyl)-3-cyclopropyl-5-(3,8-dimethyl-[1,2,4]triazolo[4,3-a]pyridin-6-yl)-1-methyl-4,5-dihydropyrrolo[3,4-c]pyrazol-6(1H)-one] showed a pIC50 on His-Brd2(60-472) of 7.70.

As to `Cc1nn(C2CC2)c2c1[C@@H](c1ccc(Cl)cc1)N(c1cc(C)c3nnc(C)n3n1)C2=O` [Example 122, (R)-4-(4-chlorophenyl)-1-cyclopropyl-5-(3,8-dimethyl-[1,2,4]triazolo[4,3-b]-pyridazin-6-yl)-3-methyl-4,5-dihydropyrrolo[3,4-c]pyrazol-6(1H)-one], the values for the pIC50 on His-Brd2(60-472) and on His-Brd3(20-477) were 7.92 and greater than 7.96, respectively.

For `COc1c2c(nn1C)C(=O)N(c1cc(C)c(=O)n(C)c1)C2c1ccc(Cl)cc1` (centres unmarked) [Example 77, 4-(4-chlorophenyl)-5-(1,5-dimethyl-6-oxo-1,6-dihydropyridin-3-yl)-3-methoxy-2-methyl-4,5-dihydropyrrolo[3,4-c]pyrazol-6(2H)-one], the pIC50 at His-Brd2(60-472) and at His-Brd3(20-477) was 6.92 each time.

As a reminder, the pIC50 is −log10 of the IC50, conventionally taken in molar units.
